Earlier results on one substance are cited in patent publication US4251439A, “Pharmacologically active peptides” (Eli Lilly and Company, priority 1979, dated 1981).

One data set deals with mice. Particulars: administration intracerebroventricularly; cited from earlier work.
For data set [1] the following is noted: administered parenterally; cited from earlier work.

Regarding “H-Tyr-Gly-Gly-Phe-Leu-OH [leucine enkephalin]”, the analgesic activity entry in the data set with mice is on record as “exhibit analgesic activity”. Besides, the useful analgesic activity result in data set [1] is “practically devoid of any useful analgesic activity”.
